Values joined by “and” are separate entries in the source; they are usually repeats but may differ in a detail not shown here. Identical values can stand only once. Where a SMILES comes first, the peptide text is derived from it. [ ]: non-standard residue; d: D form. dNMeA = CN[C@H](C)C(=O)O; Sar = CNCC(=O)O
Tests used:
C57BL/6J mice [1] = settings: 10 mg/kg i.p., over 2 h
C57BL/6J mice [2] = test: Conditioned place preference / aversion (place conditioning); settings: 2-day conditioning, i.c.v.: morphine 30 nmol, U50,488 100 nmol, cyclo[D-Phe-Pro-Sar-Phe] 0.1, 1 or 10 nmol
C57BL/6J mice [3] = test: 55° C. warm-water tail-withdrawal assay, antinociception (agonist activity); format: in vivo, mouse; settings: for antinociception ED50 (and 95% confidence interval) / antinociceptive activity: i.c.v. administration; for antinociception ED50 values (printed EC50), i.p. route: i.p. administration
C57BL/6J mice [4] = test: Rotarod assay; settings: 10 mg/kg i.p.

Row | SMILES | ambulation (spontaneous locomotor activity) (C57BL/6J mice [1]) | respiration rate (C57BL/6J mice [1]) | place conditioning response (CPP or CPA) (C57BL/6J mice [2]) | antinociception ED50 (and 95% confidence interval) (C57BL/6J mice [3]) | antinociception ED50 values (printed EC50), i.p. route (C57BL/6J mice [3]) | coordinated locomotor activity (rotarod latency to fall) (C57BL/6J mice [4]) | duration of antinociception (C57BL/6J mice [3]; 10 nmol dose, i.c.v.) | antinociceptive activity (C57BL/6J mice [3]) | antinociceptive potency relative to morphine (C57BL/6J mice [3]; i.c.v., ratio of ED50 values) | antinociceptive activity after peripheral administration (C57BL/6J mice [3]; i.p. and p.o. routes)
1 | CN1CC[C@]23c4c5ccc(O)c4O[C@H]2[C@@H](O)C=C[C@H]3[C@H]1C5 [morphine, reference compound] | significant, time-dependent increase in ambulation | significantly reduced respiration for the first 40 min | significant place preference response | 2.35 (1.13-5.03) nmol | 3.91 (2.92-5.17) mg/kg |  |  |  |  | 
2 | CN1CC(=O)N[C@@H](Cc2ccccc2)C(=O)N[C@H](Cc2ccccc2)C(=O)N2CCC[C@H]2C1=O [cyclo[D-Phe-Pro-Sar-Phe]] (cyclo(F[dF]P[Sar])) |  | without significant effect at any time point tested | neither a significant preference for, nor aversion to, the drug paired chamber | 0.11 nmol and 0.11 (0.05-0.21) nmol | 1.91 (0.40-3.54) mg/kg | did not differ in effect from vehicle-treated animals | up to 80 min | significant time- and dose-dependent antinociceptive activity | 21.4 fold | dose-dependent transient antinociceptive activity
3 | C[C@@H]1C(=O)N[C@@H](Cc2ccccc2)C(=O)N[C@H](Cc2ccccc2)C(=O)N2CCC[C@H]2C(=O)N1C [cyclo[D-Phe-Pro-D-NMe-Ala-Phe]] (cyclo(F[dF]P[dNMeA])) |  |  |  |  |  |  |  | does show antinoiception at higher dosages |  | 

Reference: patent US20210163532A1, “NOVEL M[…] PEPTIDES” (University of Florida Research Foundation, Incorporated, priority 2018, published 2021)
